# Experimental data reported in publication PMC4104666 (Bioorganic & medicinal chemistry letters, 2011).
# By UniProt entry, the sequences of proteins in these tests, tags left out.
# UniProt P28222, whole entry: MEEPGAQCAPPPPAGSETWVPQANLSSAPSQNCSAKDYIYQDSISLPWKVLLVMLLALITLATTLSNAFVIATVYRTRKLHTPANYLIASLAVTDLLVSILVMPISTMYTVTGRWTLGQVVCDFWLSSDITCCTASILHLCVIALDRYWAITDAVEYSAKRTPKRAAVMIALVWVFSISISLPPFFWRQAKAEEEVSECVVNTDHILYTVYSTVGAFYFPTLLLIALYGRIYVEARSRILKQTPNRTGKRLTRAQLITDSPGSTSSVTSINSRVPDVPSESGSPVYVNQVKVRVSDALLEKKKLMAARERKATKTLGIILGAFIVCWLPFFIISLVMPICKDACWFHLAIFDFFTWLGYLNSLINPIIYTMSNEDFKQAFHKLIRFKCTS
# Molecular target: 5-HT1B receptor (Homo sapiens, UniProt P28222)
structure (smiles),measurement,value
CN1C[C@H](C(=O)N[C@]2(C)O[C@@]3(O)[C@@H]4CCCN4C(=O)[C@H](Cc4ccccc4)N3C2=O)C=C2c3cccc4[nH]cc(c34)C[C@H]21 [ergotamine],"radioligand competition displacement ([3H]-CT), HEK cell membranes",Displacement by the reference ligand ergotamine is shown for comparison.
